Experimental data taken from the Kinase Knowledgebase extract (Sharma et al. 2016).

Amino acid sequences for entries named in this document (tags omitted).
UniProt P00533, whole entry, looked up: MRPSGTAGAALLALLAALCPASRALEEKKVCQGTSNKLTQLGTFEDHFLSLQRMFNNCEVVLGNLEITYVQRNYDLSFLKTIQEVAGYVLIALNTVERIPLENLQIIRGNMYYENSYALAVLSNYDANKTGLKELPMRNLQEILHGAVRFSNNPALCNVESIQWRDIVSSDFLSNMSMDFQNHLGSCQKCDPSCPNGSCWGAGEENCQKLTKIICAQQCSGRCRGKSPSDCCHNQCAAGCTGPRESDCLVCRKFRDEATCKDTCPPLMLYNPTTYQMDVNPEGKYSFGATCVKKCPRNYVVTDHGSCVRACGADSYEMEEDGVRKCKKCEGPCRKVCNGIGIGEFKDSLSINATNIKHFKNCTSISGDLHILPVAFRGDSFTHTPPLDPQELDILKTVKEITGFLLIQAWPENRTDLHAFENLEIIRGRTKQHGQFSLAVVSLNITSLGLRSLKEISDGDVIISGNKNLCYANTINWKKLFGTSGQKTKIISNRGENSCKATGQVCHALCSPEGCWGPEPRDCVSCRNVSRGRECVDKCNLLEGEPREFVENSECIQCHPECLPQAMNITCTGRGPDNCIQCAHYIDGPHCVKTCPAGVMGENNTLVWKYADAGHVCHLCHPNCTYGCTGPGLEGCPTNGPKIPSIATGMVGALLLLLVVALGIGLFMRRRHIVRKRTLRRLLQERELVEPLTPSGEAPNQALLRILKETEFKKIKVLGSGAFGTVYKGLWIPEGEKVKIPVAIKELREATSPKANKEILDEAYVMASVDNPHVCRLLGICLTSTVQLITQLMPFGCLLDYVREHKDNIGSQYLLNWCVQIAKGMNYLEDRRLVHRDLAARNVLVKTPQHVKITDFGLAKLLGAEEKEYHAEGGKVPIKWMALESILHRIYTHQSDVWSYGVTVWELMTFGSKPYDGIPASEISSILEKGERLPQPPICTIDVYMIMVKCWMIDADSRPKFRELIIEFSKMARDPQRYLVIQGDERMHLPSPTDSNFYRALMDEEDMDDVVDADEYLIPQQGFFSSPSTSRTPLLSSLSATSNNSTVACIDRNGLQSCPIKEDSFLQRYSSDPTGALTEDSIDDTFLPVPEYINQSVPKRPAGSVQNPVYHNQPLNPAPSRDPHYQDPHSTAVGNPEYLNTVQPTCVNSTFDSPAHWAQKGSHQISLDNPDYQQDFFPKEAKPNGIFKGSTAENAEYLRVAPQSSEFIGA

Key:
[1] = biological target: EGFR (human) (UniProt P00533); settings: a431
[2] = biological target: EGFR (human) (UniProt P00533); settings: a431; remark: listed apart in the source
[3] = biological target: EGFR (human) (UniProt P00533); settings: A431

IC50 [1]: 5100 nM | IC50 [2]: 90 nM | IC50 [3]: 2.7 nM
Compound: COc1cc2ncnc(Nc3cccc(Cl)c3)c2cc1OC
